The structures appear in SMILES notation. This is a selection; strong and weak results do not stand in their true shares. Activity calls are given as the source filed them.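 Rule for the calls: active = inhibition of at least 50% at 8 µM in the primary screen; inactive = the rest.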

Protein sequences, listed by entry. Tags and fused reporters are not part of them.
UniProt O15151, whole entry, looked up: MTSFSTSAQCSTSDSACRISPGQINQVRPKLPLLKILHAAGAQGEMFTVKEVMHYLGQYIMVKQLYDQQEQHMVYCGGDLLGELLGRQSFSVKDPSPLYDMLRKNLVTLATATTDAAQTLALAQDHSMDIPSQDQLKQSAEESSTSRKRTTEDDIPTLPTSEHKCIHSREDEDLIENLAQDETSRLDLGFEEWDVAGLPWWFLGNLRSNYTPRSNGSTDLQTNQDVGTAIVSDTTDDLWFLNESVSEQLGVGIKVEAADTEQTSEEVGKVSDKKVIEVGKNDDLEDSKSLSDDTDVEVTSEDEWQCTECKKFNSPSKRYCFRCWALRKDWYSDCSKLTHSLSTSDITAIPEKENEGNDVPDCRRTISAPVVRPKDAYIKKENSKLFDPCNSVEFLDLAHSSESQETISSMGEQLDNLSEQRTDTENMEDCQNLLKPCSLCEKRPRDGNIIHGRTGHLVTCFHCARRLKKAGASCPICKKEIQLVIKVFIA
UniProt Q00987, whole entry, looked up: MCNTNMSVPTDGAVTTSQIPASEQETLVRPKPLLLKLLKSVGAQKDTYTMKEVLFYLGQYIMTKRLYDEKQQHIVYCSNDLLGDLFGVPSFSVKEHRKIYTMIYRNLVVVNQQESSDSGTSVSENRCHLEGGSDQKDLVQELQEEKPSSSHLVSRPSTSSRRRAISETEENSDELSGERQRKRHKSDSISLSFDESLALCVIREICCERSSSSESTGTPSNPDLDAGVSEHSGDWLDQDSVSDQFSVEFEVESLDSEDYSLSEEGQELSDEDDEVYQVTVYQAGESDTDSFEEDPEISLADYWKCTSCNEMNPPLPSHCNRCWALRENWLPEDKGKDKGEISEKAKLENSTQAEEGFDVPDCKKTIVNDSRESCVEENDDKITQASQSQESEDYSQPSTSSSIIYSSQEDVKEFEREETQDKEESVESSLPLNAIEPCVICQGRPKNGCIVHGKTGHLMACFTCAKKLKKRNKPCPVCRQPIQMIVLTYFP

For this experiment, the target named is Protein Mdm4 (Homo sapiens) + E3 ubiquitin-protein ligase Mdm2 (Homo sapiens) (UniProt O15151+Q00987). The experiment is described as follows: inhibitors of human Mdm2-MdmX association, primary screen, cell-based, luminescence, split luciferase, SaOS-2, uHTS (AID 485346). As to conditions: SaOS-2 split-luciferase Mdm2/MdmX complementation, at 8 µM, hits give high values.
For orientation: inhibition means the relative decrease from the control value, in per cent. Regarding `CCC(=O)N(c1ccccc1)C1(COC)CCN(CCn2nnn(CC)c2=O)CC1`, the inhibition is inactive: 25.5%. The figure for `CCC(=O)N(c1ccccc1)C1(COC)CCN(CCc2cccs2)CC1` is inactive: 9.74%.

The values are drawn from PubChem BioAssay AID485346 (Sanford-Burnham Center for Chemical Genomics, 2010).
